Measured values: PMC11345766, “Computational Design of Pore-Forming Peptides with Potent Antimicrobial and Anticancer Activities” (Journal of Medicinal Chemistry, 2024)

How the values were obtained:
MTT cytotoxicity assay [1] = test: MTT cytotoxicity assay
Description: (§1) Cytotoxicity against human immortalized keratinocytes HaCaT, human alveolar basal epithelial A549 (derived from adenocarcinoma), and murine macrophages RAW 264.7 was tested using MTT [3-(4,5-dimethylthiazol-2-yl)-2,5-diphenyltetrazolium bromide] assay. Cells were cultured in Dulbecco’s modified Eagle’s medium (DMEM) containing 4 mM glutamine for HaCaT, or 2 mM glutamine for A549 and RAW 264.7 cells, supplemented with 10% heat-inactivated fetal bovine serum (FBS) and antibiotics (0.1 mg/mL penicillin and streptomycin). Nonessential amino acids (NEAA) and sodium pyruvate (1 mM) were added for macrophages. Cell lines were grown in 25 and 75 cm^2 flasks at 37 °C in a humidified atmosphere with 5% CO2. Cells were suspended in DMEM, containing glutamine, NEAA, and sodium pyruvate (as described above), supplemented with 2% FBS, plated in 96-well plates at 4 × 10^4 cells/well, and incubated at 37 °C in a 5% CO2 atmosphere. After overnight incubation, the medium was replaced with fresh DMEM supplemented with peptides at different concentrations: 2, 4, 8, 16, 32, 64, and 128 μM. Negative controls were cells without peptides. […] After 4 h of incubation, acidified isopropanol was added to dissolve formazan crystals and measured for OD570 using Tecan microplate reader Infinite M200 (Salzburg, Austria).

MTT cytotoxicity assay [2] = test: MTT cytotoxicity assay; remark: listed apart in the source
Description: as §1

MTT cytotoxicity assay [3] = test: MTT cytotoxicity assay; remark: listed apart in the source
Description: as §1

With `CC[C@H](C)[C@H](NC(=O)CN)C(=O)NCC(=O)N[C@@H](C)C(=O)N[C@H](C(=O)N[C@@H](CC(C)C)C(=O)N[C@@H](CCCCN)C(=O)N[C@H](C(=O)N[C@@H](CC(C)C)C(=O)N[C@H](C(=O)N[C@H](C(=O)NCC(=O)N[C@@H](CC(C)C)C(=O)N1CCC[C@H]1C(=O)N[C@@H](C)C(=O)N[C@@H](CC(C)C)C(=O)N[C@H](C(=O)N[C@@H](CO)C(=O)N[C@@H](Cc1c[nH]c2ccccc12)C(=O)N[C@H](C(=O)N[C@@H](CCCCN)C(=O)N[C@@H](CCCNC(=N)N)C(=O)N[C@@H](CCCCN)C(=O)N[C@@H](CCCNC(=N)N)C(=O)N[C@@H](CCC(N)=O)C(=O)N[C@@H](CCC(N)=O)C(N)=O)[C@@H](C)CC)[C@@H](C)CC)[C@@H](C)O)[C@@H](C)O)C(C)C)C(C)C` [Melittin, reference compound] the IC50 (MTT cytotoxicity assay [1]) was 3000 nM, the IC50 (MTT cytotoxicity assay [2]) was under 2000 nM and the IC50 (MTT cytotoxicity assay [3]) was 2000 nM.

Like-named read-outs stand apart in the source and are kept apart here.
